The target of the first experiment is T1, mammalian target of rapamycin (mTOR) (Homo sapiens (Human), UniProt P42345).
Assay: not given
Particulars: read-out: mTOR IC50.
On to `COc1ccc(Nc2ncc(CN3CCC3)cc2-c2nc(C)nc(N)n2)cn1` [Example 220, 4-(5-(Azetidin-1-Ylmethyl)-2-(6-Methoxypyridin-3-Ylamino)Pyridin-3-yl)-6-Methyl-1,3,5-Triazin-2-Amine], for which the IC50 (commonly the concentration needed to halve the response being measured) is above 10 µM.

Take `COc1ncc(Nc2ncc(CN3CCN(S(C)(=O)=O)[C@H](C)C3)cc2-c2nc(C)nc(N)n2)cc1F` [Example 364, (R)-4-(2-(5-Fluoro-6-Methoxypyridin-3-Ylamino)-5-((3-Methyl-4-(Methylsulfonyl)Piperazin-1-yl)Methyl)Pyridin-3-yl)-6-Methyl-1,3,5-Triazin-2-Amine]: the IC50 is above 10 µM.

Take `COc1ccc(Nc2ncc(CN3CCOCC3)cc2-c2nc(C)nc(N)n2)cn1` [Example 44, 4-(2-(6-methoxypyridin-3-ylamino)-5-(morpholinomethyl)pyridin-3-yl)-6-methyl-1,3,5-triazin-2-amine]: the half-inhibitory concentration (IC50) is above 10 µM.

As for `COc1ncc(Nc2ncc(C(C)NC(C)C)cc2-c2nc(C)nc(N)n2)cc1F` (stereo not drawn) [Example 299, 4-(2-(5-Fluoro-6-Methoxypyridin-3-Ylamino)-5-(1-(Isopropylamino)Ethyl)Pyridin-3-yl)-6-Methyl-1,3,5-Triazin-2-Amine], the IC50 is above 10 µM.

Regarding `Cc1cnc(Nc2cccc3[nH]ncc23)c(-c2nc(C)nc(N)n2)c1` [Example 47, N-(3-(4-Amino-6-Methyl-1,3,5-Triazin-2-yl)-5-Methylpyridine-2-yl)-1H-Indazol-4-Amine], the IC50 is above 50 µM.

As to `Cc1nc(N)nc(-c2cccnc2Nc2ccc(Cl)nc2)n1` [Example 54, 4-(2-(6-Chloropyridin-3-Ylamino)Pyridin-3-yl)-6-Methyl-1,3,5-Triazin-2-Amine], the half-maximal inhibitory concentration (IC50) was above 10 µM.

Turning to `Cc1nc(N)nc(-c2cccnc2Nc2cccc(O)c2)n1` [Example 23, 3-(3-(4-Amino-6-Methyl-1,3,5-Triazin-2-yl)Pyridin-2-Ylamino)Phenol], the IC50 came to 0.201 µM.

On to `COc1ccc(Nc2ncc(N3CCC[C@H]3CO)cc2-c2nc(C)nc3[nH]cnc23)cn1` [Example 100, ((2S)-1-(6-(6-Methoxypyridin-3-Ylamino)-5-(2-Methyl-9H-Purin-6-yl)Pyridin-3-yl)Pyrrolidin-2-yl)Methanol], for which the IC50 turned out to be 1.15 µM.

In a further experiment the target is T1, mammalian target of rapamycin (mTOR). In words: biochemical.
Conditions: not given
Turning to `COc1ccc(Nc2ncc(CN3CCC(S(C)(=O)=O)C3)cc2-c2nc(C)nc(N)n2)cn1` (racemic) [Example 228, (RAC)-4-(2-(6-Methoxypyridin-3-Ylamino)-5-((3-(Methylsulfonyl)Pyrrolidin-1-yl)Methyl)Pyridin-3-yl)-6-Methyl-1,3,5-Triazin-2-Amine], half-maximal inhibition (IC50) required 3.58 µM.

As for `COc1ccc(Nc2ncc(CN3CCN(C(=O)N(C)C4CC4)CC3)cc2-c2nc(C)nc(N)n2)cn1` [Example 359, 4-((5-(4-Amino-6-Methyl-1,3,5-Triazin-2-yl)-6-(6-Methoxypyridin-3-Ylamino)Pyridin-3-yl)Methyl)-N-Cyclopropyl-N-Methylpiperazine-1-Carboxamide], the IC50 came to 2.99 µM.

Turning to `COc1ccc(Nc2ncc([C@@H](O)C(C)(C)C)cc2-c2nc(C)nc3c2ncn3C2CCCCO2)cn1` (stereo partly drawn) [Example 132, (1S)-1-(6-(6-Methoxypyridin-3-Ylamino)-5-(2-Methyl-9-(Tetrahydro-2H-Pyran-2-yl)-9H-Purin-6-yl)Pyridin-3-yl)-2,2-Dimethylpropan-1-ol], the IC50 is 0.129 µM.

As for `COc1ncc(Nc2ncc(C(C)CO)cc2-c2nc(C)nc(N)n2)cc1F` (single isomer, unassigned) [312 First eluting, 2-(5-(4-Amino-6-methyl-1,3,5-triazin-2-yl)-6-(5-fluoro-6-methoxypyridin-3-ylamino)pyridin-3-yl)propan-1-ol], the IC50 is above 10 µM.

On to `COc1ccc(Nc2ncc(CNc3cccnc3)cc2-c2nc(C)nc3[nH]cnc23)cn1` [Example 79, N-(6-methoxypyridin-3-yl)-3-(2-methyl-9H-purin-6-yl)-5-((pyridin-3-ylamino)methyl)pyridin-2-amine], for which the IC50 is above 10 µM.

For `COc1ccc(Nc2ncc([C@H](O)C(C)(C)C)cc2-c2nc(C)nc3c2ncn3C2CCCCO2)cn1` (stereo partly drawn) [Example 133, (1R)-1-(6-(6-Methoxypyridin-3-Ylamino)-5-(2-Methyl-9-(Tetrahydro-2H-Pyran-2-yl)-9H-Purin-6-yl)Pyridin-3-yl)-2,2-Dimethylpropan-1-ol], the IC50 was determined as 0.251 µM.

The molecule `Cc1nc(N)nc(-c2cc(CN3CCOCC3)cnc2Nc2cnc(Cl)c(NS(=O)(=O)N(C)C)c2)n1` [Example 333, N′-(5-((3-(4-Amino-6-Methyl-1,3,5-Triazin-2-yl)-5-(4-Morpholinylmethyl)-2-Pyridinyl)Amino)-2-Chloro-3-Pyridinyl)-N,N-Dimethylsulfamide] displayed an IC50 of 0.523 µM.

These data come from US8772480B2, “Inhibitors of PI3 kinase and/or mTOR” (priority 2009, dated 2014).
